Results on 13 molecules are retold here after ChEMBL document CHEMBL4402521, “Synthesis and Evaluation of Novel TLR2 Agonists as Potential Adjuvants for Cancer Vaccines” (J Med Chem, 2020).

The chains behind the UniProt entries cited, without tags or fusion partners.
UniProt O60603, whole entry: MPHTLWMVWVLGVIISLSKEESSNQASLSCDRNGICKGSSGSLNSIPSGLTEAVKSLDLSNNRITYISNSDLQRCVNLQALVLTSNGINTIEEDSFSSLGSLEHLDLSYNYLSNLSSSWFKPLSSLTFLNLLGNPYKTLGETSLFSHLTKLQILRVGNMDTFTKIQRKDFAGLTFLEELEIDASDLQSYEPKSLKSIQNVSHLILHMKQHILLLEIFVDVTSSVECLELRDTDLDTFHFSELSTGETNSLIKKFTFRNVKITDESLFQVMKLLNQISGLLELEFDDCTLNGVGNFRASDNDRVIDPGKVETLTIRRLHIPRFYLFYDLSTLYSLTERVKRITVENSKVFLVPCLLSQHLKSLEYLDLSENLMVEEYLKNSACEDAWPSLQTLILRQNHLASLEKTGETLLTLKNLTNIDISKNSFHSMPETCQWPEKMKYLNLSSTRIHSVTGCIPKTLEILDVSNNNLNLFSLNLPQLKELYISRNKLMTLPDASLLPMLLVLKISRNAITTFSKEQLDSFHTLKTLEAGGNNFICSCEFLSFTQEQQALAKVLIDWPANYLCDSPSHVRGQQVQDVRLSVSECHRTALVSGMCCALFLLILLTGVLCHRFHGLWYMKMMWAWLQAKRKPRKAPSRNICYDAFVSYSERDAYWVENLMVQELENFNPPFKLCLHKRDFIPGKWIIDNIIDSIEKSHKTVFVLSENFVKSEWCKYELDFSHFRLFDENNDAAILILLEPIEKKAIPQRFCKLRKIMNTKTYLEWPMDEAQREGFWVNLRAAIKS

In general, EC50 refers to the concentration giving half of the maximal effect. A higher EC50 goes with weaker potency.

In the test the target is Toll-like receptor 2 (Homo sapiens, UniProt O60603). Kind of test: Agonist activity at human TLR2 expressed in HEK-Blue cells co-expressing NF-kappaB-SEAP reporter gene measured after 16 hrs by SEAP reporter gene assay. In kind it is cell-based. Summed up: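 HEK-Blue-hTLR2 cells carrying a TLR2-NF-κB-SEAP reporter system were incubated with diluted agonists for 16 h. SEAP was read as absorbance at 655 nm and background was subtracted. Normalized mean ± SEM came from at least triplicate wells. EC50 (nM) was obtained by nonlinear regression curve fit of the normalized absorbance values.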
A general note: In a reporter assay the amount or activity of a reporter protein is the signal.

In the case of `CCCCCCCCCCCCCCCC(=O)OCC[C@@H](CSC[C@H](N)C(=O)N[C@@H](CO)C(=O)N[C@@H](CCCCN)C(=O)N[C@@H](CCCCN)C(=O)N[C@@H](CCCCN)C(=O)N[C@@H](CCCCN)C(=O)N[C@@H](CO)C(=O)N[C@@H](CC(C)C)C(=O)N[C@@H](CC(C)C)C(=O)N[C@@H](CCSC)C(=O)N[C@@H](Cc1c[nH]c2ccccc12)C(=O)N[C@H](C(=O)N[C@H](C(=O)N[C@@H](CCC(N)=O)C(=O)N[C@H](C(=O)O)C(C)C)[C@@H](C)O)[C@@H](C)CC)OC(=O)CCCCCCCCCCCCCCC`, the concentration giving a half-maximal response (EC50) turned out to be 46.2 nM.

In turn, `CCCCCCCCCCCCCCCC(=O)OCCCC[C@H](CSC[C@H](N)C(=O)N[C@@H](CO)C(=O)N[C@@H](CCCCN)C(=O)N[C@@H](CCCCN)C(=O)N[C@@H](CCCCN)C(=O)N[C@@H](CCCCN)C(=O)N[C@@H](CO)C(=O)N[C@@H](CC(C)C)C(=O)N[C@@H](CC(C)C)C(=O)N[C@@H](CCSC)C(=O)N[C@@H](Cc1c[nH]c2ccccc12)C(=O)N[C@H](C(=O)N[C@H](C(=O)N[C@@H](CCC(N)=O)C(=O)N[C@H](C(=O)O)C(C)C)[C@@H](C)O)[C@@H](C)CC)OC(=O)CCCCCCCCCCCCCCC` returned an EC50 of 0.304 nM.

Consider `CCCCCCCCCCCCCCCC(=O)OC[C@@H](CSC[C@H](NC(C)=O)C(=O)N[C@@H](CO)C(=O)N[C@@H](CCCCN)C(=O)N[C@@H](CCCCN)C(=O)N[C@@H](CCCCN)C(=O)N[C@@H](CCCCN)C(=O)N[C@@H](CO)C(=O)N[C@@H](CC(C)C)C(=O)N[C@@H](CC(C)C)C(=O)N[C@@H](CCSC)C(=O)N[C@@H](Cc1c[nH]c2ccccc12)C(=O)N[C@H](C(=O)N[C@H](C(=O)N[C@@H](CCC(N)=O)C(=O)N[C@H](C(=O)O)C(C)C)[C@@H](C)O)[C@@H](C)CC)OC(=O)CCCCCCCCCCCCCCC`, for which the concentration giving a half-maximal response (EC50) was 151 nM.

The molecule `CCCCCCCCCCCCCCCC(=O)OCC[C@H](CSC[C@H](N)C(=O)N[C@@H](CO)C(=O)N[C@@H](CCCCN)C(=O)N[C@@H](CCCCN)C(=O)N[C@@H](CCCCN)C(=O)N[C@@H](CCCCN)C(=O)N[C@@H](CO)C(=O)N[C@@H](CC(C)C)C(=O)N[C@@H](CC(C)C)C(=O)N[C@@H](CCSC)C(=O)N[C@@H](Cc1c[nH]c2ccccc12)C(=O)N[C@H](C(=O)N[C@H](C(=O)N[C@@H](CCC(N)=O)C(=O)N[C@H](C(=O)O)C(C)C)[C@@H](C)O)[C@@H](C)CC)OC(=O)CCCCCCCCCCCCCCC` came in with an EC50 of 0.609 nM.

Take `CCCCCCCCCCCCCCCC(=O)N[C@@H](CSC[C@H](COC(=O)CCCCCCCCCCCCCCC)OC(=O)CCCCCCCCCCCCCCC)C(=O)N[C@@H](CO)C(=O)N[C@@H](CCCCN)C(=O)N[C@@H](CCCCN)C(=O)N[C@@H](CCCCN)C(=O)N[C@@H](CCCCN)C(=O)N[C@@H](CO)C(=O)N[C@@H](CC(C)C)C(=O)N[C@@H](CC(C)C)C(=O)N[C@@H](CCSC)C(=O)N[C@@H](Cc1c[nH]c2ccccc12)C(=O)N[C@H](C(=O)N[C@H](C(=O)N[C@@H](CCC(N)=O)C(=O)N[C@H](C(=O)O)C(C)C)[C@@H](C)O)[C@@H](C)CC`: the 50% effective concentration (EC50) is 161 nM.

Take `CCCCCCCCCCCCCCCC(=O)OCC[C@H](CSC[C@H](NC(C)=O)C(=O)N[C@@H](CO)C(=O)N[C@@H](CCCCN)C(=O)N[C@@H](CCCCN)C(=O)N[C@@H](CCCCN)C(=O)N[C@@H](CCCCN)C(=O)N[C@@H](CO)C(=O)N[C@@H](CC(C)C)C(=O)N[C@@H](CC(C)C)C(=O)N[C@@H](CCSC)C(=O)N[C@@H](Cc1c[nH]c2ccccc12)C(=O)N[C@H](C(=O)N[C@H](C(=O)N[C@@H](CCC(N)=O)C(=O)N[C@H](C(=O)O)C(C)C)[C@@H](C)O)[C@@H](C)CC)OC(=O)CCCCCCCCCCCCCCC`: the half-maximal effective concentration (EC50) is 1.16 nM.

`CCCCCCCCCCCCCCCC(=O)OCCC[C@H](CSC[C@H](N)C(=O)N[C@@H](CO)C(=O)N[C@@H](CCCCN)C(=O)N[C@@H](CCCCN)C(=O)N[C@@H](CCCCN)C(=O)N[C@@H](CCCCN)C(=O)N[C@@H](CO)C(=O)N[C@@H](CC(C)C)C(=O)N[C@@H](CC(C)C)C(=O)N[C@@H](CCSC)C(=O)N[C@@H](Cc1c[nH]c2ccccc12)C(=O)N[C@H](C(=O)N[C@H](C(=O)N[C@@H](CCC(N)=O)C(=O)N[C@H](C(=O)O)C(C)C)[C@@H](C)O)[C@@H](C)CC)OC(=O)CCCCCCCCCCCCCCC` yielded an EC50 of 0.383 nM.

Regarding `CCCCCCCCCCCCCCCC(=O)OC[C@H](CSC[C@H](NC(C)=O)C(=O)N[C@@H](CO)C(=O)N[C@@H](CCCCN)C(=O)N[C@@H](CCCCN)C(=O)N[C@@H](CCCCN)C(=O)N[C@@H](CCCCN)C(=O)N[C@@H](CO)C(=O)N[C@@H](CC(C)C)C(=O)N[C@@H](CC(C)C)C(=O)N[C@@H](CCSC)C(=O)N[C@@H](Cc1c[nH]c2ccccc12)C(=O)N[C@H](C(=O)N[C@H](C(=O)N[C@@H](CCC(N)=O)C(=O)N[C@H](C(=O)O)C(C)C)[C@@H](C)O)[C@@H](C)CC)OC(=O)CCCCCCCCCCCCCCC`, the EC50 was 0.281 nM.

The molecule `CCCCCCCCCCCCCCCC(=O)OC[C@H](CSC[C@H](N)C(=O)N[C@@H](CO)C(=O)N[C@@H](CCCCN)C(=O)N[C@@H](CCCCN)C(=O)N[C@@H](CCCCN)C(=O)N[C@@H](CCCCN)C(=O)N[C@@H](CO)C(=O)N[C@@H](CC(C)C)C(=O)N[C@@H](CC(C)C)C(=O)N[C@@H](CCSC)C(=O)N[C@@H](Cc1c[nH]c2ccccc12)C(=O)N[C@H](C(=O)N[C@H](C(=O)N[C@@H](CCC(N)=O)C(=O)N[C@H](C(=O)O)C(C)C)[C@@H](C)O)[C@@H](C)CC)OC(=O)CCCCCCCCCCCCCCC` returned an EC50 of 0.468 nM.

`CCCCCCCCCCCCCCCC(=O)OC[C@@H](CSC[C@H](N)C(=O)N[C@@H](CO)C(=O)N[C@@H](CCCCN)C(=O)N[C@@H](CCCCN)C(=O)N[C@@H](CCCCN)C(=O)N[C@@H](CCCCN)C(=O)N[C@@H](CO)C(=O)N[C@@H](CC(C)C)C(=O)N[C@@H](CC(C)C)C(=O)N[C@@H](CCSC)C(=O)N[C@@H](Cc1c[nH]c2ccccc12)C(=O)N[C@H](C(=O)N[C@H](C(=O)N[C@@H](CCC(N)=O)C(=O)N[C@H](C(=O)O)C(C)C)[C@@H](C)O)[C@@H](C)CC)OC(=O)CCCCCCCCCCCCCCC` had an EC50 of 156 nM.

`CCCCCCCCCCCCCCCC(=O)N[C@@H](CSC[C@@H](COC(=O)CCCCCCCCCCCCCCC)OC(=O)CCCCCCCCCCCCCCC)C(=O)N[C@@H](CO)C(=O)N[C@@H](CCCCN)C(=O)N[C@@H](CCCCN)C(=O)N[C@@H](CCCCN)C(=O)N[C@@H](CCCCN)C(=O)N[C@@H](CO)C(=O)N[C@@H](CC(C)C)C(=O)N[C@@H](CC(C)C)C(=O)N[C@@H](CCSC)C(=O)N[C@@H](Cc1c[nH]c2ccccc12)C(=O)N[C@H](C(=O)N[C@H](C(=O)N[C@@H](CCC(N)=O)C(=O)N[C@H](C(=O)O)C(C)C)[C@@H](C)O)[C@@H](C)CC` gave an EC50 of 23 nM.

The molecule `CCCCCCCCCCCCCCCC(=O)OCCCCC[C@H](CSC[C@H](N)C(=O)N[C@@H](CO)C(=O)N[C@@H](CCCCN)C(=O)N[C@@H](CCCCN)C(=O)N[C@@H](CCCCN)C(=O)N[C@@H](CCCCN)C(=O)N[C@@H](CO)C(=O)N[C@@H](CC(C)C)C(=O)N[C@@H](CC(C)C)C(=O)N[C@@H](CCSC)C(=O)N[C@@H](Cc1c[nH]c2ccccc12)C(=O)N[C@H](C(=O)N[C@H](C(=O)N[C@@H](CCC(N)=O)C(=O)N[C@H](C(=O)O)C(C)C)[C@@H](C)O)[C@@H](C)CC)OC(=O)CCCCCCCCCCCCCCC` registered an EC50 of 4.44 nM.

The molecule `CCCCCCCCCCCCCCCC(=O)OCC[C@@H](CSC[C@H](NC(C)=O)C(=O)N[C@@H](CO)C(=O)N[C@@H](CCCCN)C(=O)N[C@@H](CCCCN)C(=O)N[C@@H](CCCCN)C(=O)N[C@@H](CCCCN)C(=O)N[C@@H](CO)C(=O)N[C@@H](CC(C)C)C(=O)N[C@@H](CC(C)C)C(=O)N[C@@H](CCSC)C(=O)N[C@@H](Cc1c[nH]c2ccccc12)C(=O)N[C@H](C(=O)N[C@H](C(=O)N[C@@H](CCC(N)=O)C(=O)N[C@H](C(=O)O)C(C)C)[C@@H](C)O)[C@@H](C)CC)OC(=O)CCCCCCCCCCCCCCC` registered an EC50 of 17.4 nM.
